For 1 molecule, Kd results are on record in patent US12415834B2, “GhR-binding peptide and composition comprising same” (priority 2021, dated 2025).

By UniProt entry, the sequences of proteins in these tests, tags left out. Chains listed by the source or under a name are the forms on record and can include a tag or linker.
UniProt P10912, with tags, fused parts or gaps limits assumed: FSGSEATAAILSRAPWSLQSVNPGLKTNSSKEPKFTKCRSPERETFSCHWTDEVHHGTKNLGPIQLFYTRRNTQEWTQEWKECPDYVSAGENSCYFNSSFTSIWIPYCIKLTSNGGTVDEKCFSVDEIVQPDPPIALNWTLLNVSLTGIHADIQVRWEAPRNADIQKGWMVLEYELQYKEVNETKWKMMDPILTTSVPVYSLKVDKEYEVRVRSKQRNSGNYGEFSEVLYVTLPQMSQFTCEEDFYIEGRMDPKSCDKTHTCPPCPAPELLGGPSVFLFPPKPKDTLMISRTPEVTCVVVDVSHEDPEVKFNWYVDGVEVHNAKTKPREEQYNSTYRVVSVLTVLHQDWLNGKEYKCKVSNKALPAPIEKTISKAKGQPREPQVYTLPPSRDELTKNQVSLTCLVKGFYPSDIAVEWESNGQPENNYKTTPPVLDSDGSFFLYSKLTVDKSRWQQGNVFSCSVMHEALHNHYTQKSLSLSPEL

Each structure is given as a SMILES string. pKd: −log10 of the molar value.

For the assay, the target named is T1, Recombinant human GhR-Fc protein (Homo sapiens, UniProt P10912).
T1 construct: purchased R&D Systems
As to the kind of experiment: SPR binding assay (Biacore T200, single-cycle kinetics) of peptides against immobilized human GhR-Fc. To be noted: hGhR, Table 1 bicyclic peptides, KD calculated from ka and kd. How it is done:
SPR assay was performed using Biacore T200 (cytiva: Former GE Healthcare). After the equilibration of Series S Sensor Chip CM5 (produced by cytiva: Former GE Healthcare) with Running Buffer (HBS-EP with 1% (v/v) DMSO), an EDC/NHS mixture was injected at a flow rate of 10 μL/min for 7 minutes to thereby activate the functional groups on sensor chip. Recombinant human GhR-Fc protein (R&D Systems) in 10 mM Acetate (pH 4.0) was injected immobilized to at a flow rate of 5 μL/min. It took 7 minutes to immobilize the GhR on the substrate surfaces of the sensor chip. Then Ethanolamine was injected at a flow rate of 10 μL/min for 7 minutes. 1M Ethanolamine (aq.) was injected at a flow rate of 10 μL/min for 420 seconds for capping.
Using these Peptide Samples, kinetics of peptides against human GhR-Fc protein were measured. The method adopted for sample measurement was a single-cycle kinetics method. The analysis was conducted using the evaluation software provided with Biacore T200. A DMSO correction curve obtained by solvent correction measurements was applied for the analysis. Kinetics fitting was done on the difference data obtained by subtracting the baseline data from sample measurement data. KD values were calculated based on the association rate constant (ka) and dissociation rate constant (kd). […]

In the case of `CC(C)[C@@H]1NC(=O)[C@H](C(C)C)NC(=O)[C@@H]2CCCCNC(=O)Cn3cc(c4ccccc43)C[C@H](NC(=O)[C@H](CC(N)=O)NC(=O)[C@H](CO)NC1=O)C(=O)N[C@@H](Cc1ccc(C(=O)O)cc1)C(=O)N[C@@H](CCCCN)C(=O)N[C@@H](Cc1c[nH]c3ccc(O)cc13)C(=O)NC(C)(C)C(=O)N[C@@H](C(C)C)C(=O)N[C@H](C(=O)NCCCC[C@H](NC(=O)CC[C@H](NC(=O)CC[C@H](NC(=O)CCCCCCCCCCCCC(=O)O)C(=O)O)C(=O)O)C(N)=O)CSCC(=O)N[C@@H](Cc1ccc(C(=O)O)cc1)C(=O)N2C` [Compound 59], the pKd – broadly, the negative decadic logarithm of the Kd, by convention in mol/L – was 8.53.
